Assays:
Details in all cases: Compound concentration 10.0 uM
[1] = target: 5-hydroxytryptamine receptor 2B (Homo sapiens) (UniProt P41595); experiment: GPCRScan assay: inhibition of 5-HT2B; parameters: radioligand conc. used [nm] 1.0 – 2.0, parental cells stable HEK
[2] = target: Mu-type opioid receptor (Homo sapiens) (UniProt P35372); experiment: GPCRScan assay: inhibition of MOR
[3] = target: Kappa-type opioid receptor (Homo sapiens) (UniProt P41145); experiment: GPCRScan assay: inhibition of KOR
[4] = target: Delta-type opioid receptor (Homo sapiens) (UniProt P41143); experiment: GPCRScan assay: inhibition of DOR; parameters: radioligand conc. used [nm] 1.0 – 2.0, parental cells stable HEK
[5] = target: Sigma non-opioid intracellular receptor 1 (Homo sapiens) (UniProt Q99720); experiment: GPCRScan assay: inhibition of Sigma 1; parameters: radioligand conc. used [nm] 4.0 – 5.0, parental cells HEKT

Protein sequences, listed by entry. Tags and fused reporters are not part of them. Lines headed by an entry give the natural chain unless they say otherwise; changes in a name come on top.
UniProt P41595, whole entry, looked up: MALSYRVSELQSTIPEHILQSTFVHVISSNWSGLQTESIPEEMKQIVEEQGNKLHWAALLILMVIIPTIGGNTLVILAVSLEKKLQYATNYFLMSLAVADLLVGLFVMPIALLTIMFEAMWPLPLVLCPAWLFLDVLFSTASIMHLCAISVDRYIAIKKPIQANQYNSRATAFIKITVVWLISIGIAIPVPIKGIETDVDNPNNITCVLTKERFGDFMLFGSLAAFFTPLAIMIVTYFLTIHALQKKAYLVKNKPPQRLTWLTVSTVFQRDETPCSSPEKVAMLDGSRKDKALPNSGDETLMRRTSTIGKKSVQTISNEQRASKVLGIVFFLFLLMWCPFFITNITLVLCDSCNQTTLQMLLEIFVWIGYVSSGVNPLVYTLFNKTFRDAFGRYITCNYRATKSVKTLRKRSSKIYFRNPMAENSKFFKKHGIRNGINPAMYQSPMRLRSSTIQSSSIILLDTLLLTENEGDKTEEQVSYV
UniProt P35372, whole entry, looked up: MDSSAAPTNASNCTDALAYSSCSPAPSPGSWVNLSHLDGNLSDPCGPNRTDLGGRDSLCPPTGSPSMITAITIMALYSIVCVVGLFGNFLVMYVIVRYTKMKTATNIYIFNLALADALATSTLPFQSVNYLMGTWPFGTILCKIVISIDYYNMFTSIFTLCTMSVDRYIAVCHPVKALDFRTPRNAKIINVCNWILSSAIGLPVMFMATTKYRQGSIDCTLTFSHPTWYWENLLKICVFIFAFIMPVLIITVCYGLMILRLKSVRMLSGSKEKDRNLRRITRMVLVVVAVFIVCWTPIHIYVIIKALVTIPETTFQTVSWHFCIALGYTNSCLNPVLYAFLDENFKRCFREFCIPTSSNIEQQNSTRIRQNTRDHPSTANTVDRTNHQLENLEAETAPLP
UniProt P41145: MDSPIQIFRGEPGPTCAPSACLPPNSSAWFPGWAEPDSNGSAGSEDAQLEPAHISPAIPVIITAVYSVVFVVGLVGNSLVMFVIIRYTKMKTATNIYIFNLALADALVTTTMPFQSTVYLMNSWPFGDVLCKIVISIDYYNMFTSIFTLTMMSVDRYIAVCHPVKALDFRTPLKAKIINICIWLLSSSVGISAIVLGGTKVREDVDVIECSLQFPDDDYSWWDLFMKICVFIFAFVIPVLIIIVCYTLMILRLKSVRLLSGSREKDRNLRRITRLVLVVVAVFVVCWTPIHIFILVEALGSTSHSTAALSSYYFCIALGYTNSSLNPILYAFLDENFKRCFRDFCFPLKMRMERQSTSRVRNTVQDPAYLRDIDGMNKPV
UniProt P41143, whole entry, looked up: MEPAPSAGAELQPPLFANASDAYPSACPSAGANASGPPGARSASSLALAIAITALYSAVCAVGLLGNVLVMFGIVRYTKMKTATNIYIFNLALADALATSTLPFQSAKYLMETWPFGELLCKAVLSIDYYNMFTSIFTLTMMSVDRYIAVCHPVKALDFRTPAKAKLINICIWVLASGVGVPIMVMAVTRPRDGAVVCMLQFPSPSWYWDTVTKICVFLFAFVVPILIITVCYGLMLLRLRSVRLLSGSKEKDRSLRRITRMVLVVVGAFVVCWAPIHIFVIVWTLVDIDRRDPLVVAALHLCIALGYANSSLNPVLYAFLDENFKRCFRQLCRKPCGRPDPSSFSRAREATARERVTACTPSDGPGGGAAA
UniProt Q99720, whole entry, looked up: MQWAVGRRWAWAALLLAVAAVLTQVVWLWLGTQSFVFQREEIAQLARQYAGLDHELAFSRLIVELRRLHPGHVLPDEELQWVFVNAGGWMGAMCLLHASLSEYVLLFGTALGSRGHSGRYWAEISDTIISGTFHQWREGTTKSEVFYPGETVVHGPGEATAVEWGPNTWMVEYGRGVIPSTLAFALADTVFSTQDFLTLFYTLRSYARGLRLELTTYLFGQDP

Measured: inhibition

Cc1cc2c(-c3ccco3)cnc(N[C@H]3CCN(C)C[C@@H]3C(=O)NC3CCCCC3)c2[nH]c1=O
inactive: [1] 24.3% | [2] 24.3% | [3] 34.9% | [4] 22%

Cc1cc2c(-c3ccco3)cnc(N[C@@H]3CCN(C)C[C@H]3C(=O)NC3CCCCC3)c2[nH]c1=O
inactive: [1] 9.16% | [2] 27% | [3] 28.1% | [5] 22.6% | [4] 40.9%

Reference: ChEMBL document CHEMBL4630905
